Assay results taken from publication PMC5179494 (Molecular Cell, 2016).

By UniProt entry, the sequences of proteins in these tests, tags left out. Where a name states a change or a piece, a line headed by the entry shows the natural chain unless it says otherwise.
UniProt P0DV57: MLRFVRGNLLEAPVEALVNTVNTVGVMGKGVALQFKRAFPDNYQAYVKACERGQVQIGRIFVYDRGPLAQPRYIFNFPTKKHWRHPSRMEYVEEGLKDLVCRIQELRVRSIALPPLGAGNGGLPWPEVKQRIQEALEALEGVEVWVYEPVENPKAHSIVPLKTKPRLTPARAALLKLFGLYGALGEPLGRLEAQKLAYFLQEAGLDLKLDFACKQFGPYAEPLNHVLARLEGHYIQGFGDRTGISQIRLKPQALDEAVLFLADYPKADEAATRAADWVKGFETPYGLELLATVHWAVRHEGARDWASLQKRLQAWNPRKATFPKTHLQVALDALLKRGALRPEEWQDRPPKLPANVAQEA

Target: T1, TaqDarG (Thermus aquaticus, UniProt P0DV57)
T1 construct: gene darG
Test: release from ADP-ribosylated oligonucleotide, autoradiography of TLC
Conditions: ADP-ribosylated ssDNA oligonucleotide as substrate; labelled compound; 37 C, 15 min

Nc1ncnc2c1ncn2[C@@H]1O[C@H](COP(=O)(O)OP(=O)(O)OC[C@H]2OC(O)[C@H](O)[C@@H]2O)[C@@H](O)[C@H]1O (stereo partly shown) [ADPr]
release from ADP-ribosylated oligonucleotide, autoradiography of TLC: loss of modification (Figures 3A, top, and S3A) and the release of free ADPr
